This test has as its system SERT mutant S277C/X5C. The experiment in a line: Cytoplasmic cysteine accessibility measurement (S277C reactivity with MTSEA, read out by ASP+ binding). The following applies: 10 μM ligand + 0.2 mM MTSEA, 25 μg/ml digitonin, 5 min; compared with MTSEA alone.

As for `NCCc1c[nH]c2ccc(O)cc12` [5-HT, 5-hydroxytryptamine], the “Influence of ligand on reactivity of S277C with MTSEA (inactivation of ASP+ binding)” value was “significantly increased the reactivity of S277C”.

Regarding “(-)-Syringaresinol-4-O-β-D-apiofuranosyl-(1→2)-β-D-glucopyranoside [SAG]”, the “Influence of ligand on reactivity of S277C with MTSEA (inactivation of ASP+ binding)” value is “protect S277C from MTSEA inactivation”.

The values above are taken from PMC9649612, “Molecular docking and biochemical validation of (-)-syringaresinol-4-O-β-D-apiofuranosyl-(1→2)-β-D-glucopyranoside binding to an allosteric site in monoamine transporters” (Frontiers in Pharmacology, 2022).
